The values below come from ChEMBL document CHEMBL1127099, “Anticonvulsant activity of glycine-site NMDA antagonists. 2. trans 2-carboxy-4-substituted tetrahydroquinolines” (Bioorg Med Chem Lett, 1993).

SMILES strings stand for the structures.

In the assay the target is Glutamate NMDA receptor. Briefly: Tested for the binding affinity at glycine recognition site of the NMDA receptor in rat cortical membranes using radiolabeled [3H]- L-689 560. In kind it is cell membranes, Membrane.

One may read the IC50 as the concentration that gives 50% inhibition. Read a high IC50 as a need for much substance. Compound `O=C(O)c1cc(=O)c2ccccc2[nH]1` [TRANSTORINE] yielded an IC50 of 13.8 µM. In other words, the double-digit micromolar range.
